# Data taken from article PMC4552487.
# Key:
# [1] = target: full-length wild-type Parkin (1-465), untagged (UniProt O60260)
# [2] = target: full-length Parkin His302Ala (H302A) mutant, untagged (UniProt O60260); experiment: ITC; ubiquitin^PhosSer65 in the syringe titrated into 50 μM wild-type or mutant Parkin in the cell; 50 mM HEPES pH 8.0, 150 mM NaCl, 500 μM TCEP; 20°C; single binding site model
# [3] = target: full-length wild-type Parkin (1-465), untagged (UniProt O60260); experiment: as above
substance,measurement,setting,value
Ser65-phosphorylated ubiquitin (ubiquitin^Phospho-Ser65) (from UniProt P0CG53 1-76) (natural protein),"stoichiometry of phosphorylation of Parkin Ubl Ser65 by PINK1 in a kinase assay, increasing ubiquitin^Phospho-Ser65 up to 3-fold excess over Parkin (∼0.2 without)",[1],0.9
same,Kd,[2],42 µM
same,Kd,[3],0.156 µM
